Compound activity (PubChem)
PGC1a acetyl inh: lowers PGC1a acetylation signal in U2OS cells; actives 0.17% (n = 350,000); inhibition, % at 15.6 µM; AlphaScreen anti-acetyl-lysine; with virally co-expressed GCN5 acetyltransferase;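 active = every replicate shows inhibition of at least 40%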;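 note: 0% = neutral control wells and 100% = positive control wells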
MITF TRPM1 HTS: increases MITF-driven TRPM1 promoter luciferase signal; actives 0.75% (n = 300,000); activation, % at 12.5 µM; SK-MEL-5 TRPM1-promoter luciferase, 24 h; % of positive control, neutral wells = 0; AID 588334;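 active = mean activation of at least 80% with every replicate also reaching 80%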;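 note: 0% = neutral control wells and 100% = parthenolide positive control wells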
MITF TRPM1 inh: MITF TRPM1 promoter inhibition in SK-MEL-5 cells | SK-MEL-5 TRPM1 promoter luciferase, 24 h | inhibition, % at 12.5 µM | actives 0.83% (n = 330,000);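 active = mean inhibition across replicates of 60% or more, whatever share of single replicates reaches that level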
Yeast UUG start: yeast start codon fidelity modulation; activity score, % at 18.7 µM; actives 0.13% (n = 350,000); S. cerevisiae UUG-firefly luciferase reporter, luminescence/redox ratio; AID 602363;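 active means replicate mean at a twofold rise or more, about +100% in these data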;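 further: firefly luciferase made from a UUG start codon reports start codon fidelity; reporter light over untreated wells divided by growth signal over untreated wells; some hits fall short of that in this replicate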
Wnt bcat act: Wnt/beta-catenin pathway activation. Wnt/beta-catenin reporter cell assay, activator, plate reader. actives 1.2% (n = 300,000). activation, % at 9.35 µM; in the data active = activation above about 30%, passing the limit was not always enough;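 note: 0% = neutral control wells and 100% = positive control wells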
miR-122 sensor: miR-122 inhibition in Huh7 cells | Huh7 miR-122 Renilla luciferase sensor, 48 h; neutral wells = 0, positive control = 100 | activation (reporter increase), % at 12.5 µM | actives 0.3% (n = 340,000);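 active = mean replicate activation score at least 90 and every replicate individually at or above 90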;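 note: higher luciferase means less miR-122 activity so hits act as miR-122 inhibitors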
* hit, by the source's call; nt = no result given; [ ] = remark or other dose. Only some compounds are listed: those with a hit (about 2.1% of all), similar ones and a draw of the others.

smiles	PGC1a acetyl inh	MITF TRPM1 HTS	MITF TRPM1 inh	Yeast UUG start	Wnt bcat act	miR-122 sensor
C[C@H]1CN([C@@H](C)CO)C(=O)c2cc(N(C)C)ccc2O[C@@H]1CN(C)Cc1ccc(C(F)(F)F)cc1	2	nt	nt	-7	nt	78[16.7 µM]
C[C@H](CO)N1C[C@H](C)[C@@H](CN(C)Cc2ccc(C(=O)Nc3ccccc3N)cc2)Oc2ccc(N(C)C)cc2CC1=O	-9	nt	nt	-5	nt	63[16.7 µM]
C[C@H](CO)N1C[C@H](C)[C@H](CN(C)Cc2ccc(C(=O)Nc3ccccc3N)cc2)Oc2ccc(N(C)C)cc2CC1=O	37	nt	nt	16	nt	355*[16.7 µM]
C[C@H](CO)N1C[C@H](C)[C@@H](CN(C)Cc2ccc(C(F)(F)F)cc2)Oc2ccc(N(C)C)cc2C1=O	14	nt	nt	9	nt	98*[16.7 µM]
COCC(=O)N1[C@@H](C#N)[C@@H](c2ccccc2-c2cccc(OC)c2)[C@@H]1CO	-2	nt	nt	nt	nt	nt
O=C(Cc1ccccn1)N[C@H]1C=C[C@@H](CC(=O)N2CCCCC2)O[C@H]1CO	-3	nt	nt	-9	nt	nt
C[C@@H]1CN([C@@H](C)CO)S(=O)(=O)c2ccc(-c3ccc(F)cc3)cc2O[C@@H]1CN(C)C(=O)Nc1ccccc1F	16	nt	nt	-2	nt	16[16.7 µM]
COc1ccc(Cn2cc(CN3CCc4onc(-c5ccc(Br)cc5)c4C3=O)nn2)cc1	nt	nt	nt	nt	32*	nt
COc1ccccc1-n1cc(CN2CCc3onc(-c4ccc(Br)cc4)c3C2=O)nn1	nt	nt	nt	nt	0	nt
CO[C@H]1CN(C)C(=O)c2cc(NC(=O)Nc3cc(Cl)cc(Cl)c3)ccc2OC[C@@H](C)NC[C@H]1C	8	nt	nt	nt	nt	-7[16.7 µM]
Cc1cc(C)cc(NC(=O)c2cc(C)n(Cc3cccs3)c2C)c1	-44	103*	-108	-6	2	nt
Cc1cc(C(=O)Cn2nnc3ccccc3c2=O)c(C)n1Cc1cccs1	-3	nt	4	-44	35*	-1
CO[C@@H](CN(C)S(=O)(=O)c1cn(C)cn1)[C@H](C)CN(C(=O)Nc1ccc(F)cc1)[C@@H](C)CO	6	nt	nt	nt	nt	nt
C[C@@H]1CN([C@H](C)CO)C(=O)c2cc(NS(=O)(=O)c3ccc(F)cc3)ccc2O[C@@H](C)CCCCO[C@H]1CN(C)Cc1ccc(Cl)c(Cl)c1	11	nt	nt	15	nt	19[16.7 µM]
CC(SCc1ccccc1)C(=O)Nc1ccccc1 (stereo unspecified)	6	5	-4	-21	37*	-2
C[C@@H]1CCCCO[C@@H](CN(C)C(=O)C2CCCCC2)[C@H](C)CN([C@@H](C)CO)C(=O)c2cc(NS(=O)(=O)c3ccc(Cl)cc3)ccc2O1	-7	nt	nt	-15	nt	-10[16.7 µM]
CCN1C(=O)/C(=C2/C=Cc3ccccc3N2C)OC1=S	6	101*	-96	-2	nt	-6
COc1ccccc1NC(=O)/C=C1\NC(=O)CS1	nt	9	-4	-4	-1	-2
COc1ccccc1NC(=O)/C=C1\SCC(=O)N1C	93*	-4	5	nt	-2	nt
O=C(Nc1ccc2c(c1)[C@@H]1C[C@H](CC(=O)N3CCOCC3)O[C@@H](CO)[C@@H]1O2)NC1CCCC1	5	nt	nt	2	nt	-5[16.7 µM]
O=C(COc1ccc2c(c1)C(=O)CC1(CCCCC1)O2)NCc1ccccc1	nt	nt	1	-12	-10	220*
C[C@H]1CN([C@@H](C)CO)C(=O)c2cc(NS(=O)(=O)c3ccc(Cl)cc3)ccc2O[C@@H]1CN(C)Cc1ccc(C(F)(F)F)cc1	-2	nt	nt	2	nt	-4[16.7 µM]
CCN1/C(=C/c2cccc[n+]2C)Sc2ccc(OC)cc21	nt	-24	25	8	-4	nt
CCN1/C(=C/c2ccc3cc(C)ccc3[n+]2C)Sc2ccc3sccc3c21	33	-77	77*	-20	-4	-18
CCN1/C(=C/c2ccc3ccccc3[n+]2CC)C=Cc2ccccc21	9	-101	102*	6	nt	-17
CCCCN1/C(=C/c2ccc3ccccc3[n+]2CC)Sc2ccccc21	-4	-68	69*	nt	nt	-5
CCN1/C(=C/c2ccc3cc(C)ccc3[n+]2CC)Sc2cc(C)ccc21	nt	-85	85*	40	0	-24
CCN1/C(=C/c2ccc3ccccc3[n+]2CCCS(=O)(=O)[O-])C=Cc2cc(C)ccc21	9	-2	6	-1	0	-13
C[C@@H]1CN([C@@H](C)CO)C(=O)Cc2cc(NC(=O)Cc3ccccc3)ccc2O[C@@H]1CN(C)C(=O)NC1CCCCC1	-4	nt	nt	13	nt	-5[16.7 µM]
O=C(c1cnsn1)N1CCC(CO)(Cc2cccc(F)c2)CC1	-14	114*	-107	-12	50*	1
Nc1c(C(=O)Nc2ccc(S(=O)(=O)N3CCCC3)cc2)sc2nc3ccc(OC(F)(F)F)cc3cc12	-4	-82	83*	-9	-22	-3
Nc1c(C(=O)Nc2ccc(S(=O)(=O)N3CCCC3)cc2)sc2nc3cc4c(cc3cc12)CCC4	nt	15	-15	nt	16	nt
O=C(C[C@@H]1C=C[C@H](NC(=O)C2CC2)[C@H](CO)O1)NCC1CC1	-2	nt	nt	-7	nt	nt
CSc1cccc(NC(=O)C(=O)NCc2ccccc2)c1	-3	nt	-11	-4	3	0
CCOc1ccc(NC(=O)Nc2cccc(C(=O)O)c2)cc1	5	-94	94*	nt	-31	-4
O=C(NCc1ccccc1)C(=O)Nc1cccc(C(=O)O)c1	-6	-60	63*	-85	6	-6

Some of the entries so far, with values ahead of the structure:
PGC1a acetyl inh	MITF TRPM1 HTS	MITF TRPM1 inh	Yeast UUG start	Wnt bcat act	miR-122 sensor	canonical_smiles
-2	nt	nt	-7	nt	nt	O=C(C[C@@H]1C=C[C@H](NC(=O)C2CC2)[C@H](CO)O1)NCC1CC1
-4	-68	69*	nt	nt	-5	CCCCN1/C(=C/c2ccc3ccccc3[n+]2CC)Sc2ccccc21
-6	-60	63*	-85	6	-6	O=C(NCc1ccccc1)C(=O)Nc1cccc(C(=O)O)c1
-14	114*	-107	-12	50*	1	O=C(c1cnsn1)N1CCC(CO)(Cc2cccc(F)c2)CC1
9	-101	102*	6	nt	-17	CCN1/C(=C/c2ccc3ccccc3[n+]2CC)C=Cc2ccccc21

(continued)
smiles	PGC1a acetyl inh	MITF TRPM1 HTS	MITF TRPM1 inh	Yeast UUG start	Wnt bcat act	miR-122 sensor
O=C(CCCOc1ccc(Cl)cc1)Nc1cccc(C(=O)O)c1	10	-2	5	-3	56*	2
CCOc1cccc(C(=O)NC(=S)Nc2ccccc2)c1	nt	93*	-85	nt	5	nt
O=C(Nc1ccc(Cl)cc1)Nc1cccc(C(=O)O)c1	9	-80	80*	nt	-1	3
O=C(CN1CCCCC1)Nc1scc2c1c(=O)oc1ccccc12	3	nt	-64	-11	38*	-4
O=C(CN1CCOCC1)Nc1scc2c1c(=O)oc1ccccc12	-7	nt	nt	12	1	-11
CCCN1[C@@H]2c3ccc(-c4ccc(OC)cc4)c(=O)n3C[C@H]1[C@H](CO)[C@H]2C(=O)NCC	4	nt	nt	nt	nt	nt
Cc1ccc(C)c(OCC(=O)O/N=C(\N)c2ccccn2)c1	-9	96*	-91	-23	45*	-1
N/C(=N\OC(=O)COc1ccc2ccccc2c1)c1ccccn1	-14	56	-62	-18	36*	-4
Cc1ccc(C(=O)O/N=C(\N)c2ccccn2)c(C)c1	nt	-95	96*	-92	12	0
N/C(=N\OC(=O)c1ccccc1Cl)c1ccccn1	8	-65	66*	-88	-8	nt
Cc1ccc(C)c(OCC(=O)O/N=C(\N)c2cccnc2)c1	-9	24	-24	-15	7	-5
Cc1noc(C)c1S(=O)(=O)N(C)C[C@H]1Oc2ccc(NC(=O)NC3CCCCC3)cc2CC(=O)N([C@@H](C)CO)C[C@@H]1C	0	nt	nt	8	nt	6[16.7 µM]
COc1ccccc1C(=O)O/N=C(\N)c1ccccn1	7	nt	-6	nt	54*	1
